Data published in ChEMBL document CHEMBL1128468, “Amino acid side chain descriptors for quantitative structure-activity relationship studies of peptide analogues” (J Med Chem, 1995).

Experiment: Bitter tasting threshold was expressed as log 1/T.
Type: functional

SMILES	Log 1/T
CC[C@H](C)[C@H](N)C(=O)N1CCC[C@@H]1C(=O)O	2.4
CC(C)C[C@H](NC(=O)[C@@H](N)CC(C)C)C(=O)O	2.35
CC[C@@H](C)[C@H](NC(=O)CN)C(=O)O	1.7
N[C@@H](Cc1ccccc1)C(=O)N1CCC[C@@H]1C(=O)O	2.7
CC[C@@H](C)[C@H](NC(=O)[C@@H]1CCCN1)C(=O)O	2.33
